{"source": "paper PMC6153967", "about": "(CNS Drugs, 2018)", "origin": "cited, not measured here", "conditions": "cited from earlier work", "note": "Like-named read-outs stand apart in the source and are kept apart here.", "data": [{"substance": "aducanumab: anti-amyloid antibody", "values": [{"measurement": "Incidence of ARIA-E", "setting": "dose titration regimen, APOE4 carriers", "value": "~ 35%"}, {"measurement": "Incidence of ARIA-E", "setting": "two highest doses", "value": "~ 40%"}]}]}
